Source: PubChem BioAssay AID2098 (Broad Institute, 2009)
The list shows a part of the results, in another mix than the full data. The source made the active and inactive calls.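 How the source made its calls: active means more than half of replicate wells show activity change below -50%, luminescence cut by over half; inconclusive means some wells, but at most half, below -50%; inactive means no replicate well below -50%.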

Test: blocking HSF1-driven luciferase expression – cell-based, NIH3T3, luminescence, primary screen (AID 2098);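 further: luciferase reports HSF-1 transcriptional activity via heat shock element; 0% = median of DMSO wells and -100% = zero luminescence signal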
Settings: NIH3T3-HGL HSE-luciferase, MG132-induced, luminescence 8 h; active compounds read low; screened at 7.5 µM (by protocol)
For CC(C)CC(=O)NC(Sc1ccc(Cl)cc1)C(Cl)(Cl)Cl (stereo not given), the activity change, negative = inhibition was inactive: 7.81%. For Nc1cc(N)c2nonc2c1[N+](=O)[O-], the activity change, negative = inhibition was inactive: -3.08%. For Oc1ccccc1CNc1ccccn1, the activity change, negative = inhibition was inactive: 7.14%. With Cc1c2non([O-])c-2c(C)[n+](=O)[n+]1[O-] the activity change, negative = inhibition was inactive: -10.4%. With O=C(NC(Sc1ccncn1)C(Cl)(Cl)Cl)c1ccccc1 (stereo not given) the activity change, negative = inhibition was inactive: 2.94%. With COc1ccccc1OP(=O)(Nc1ccc(C)cn1)Oc1ccccc1OC the activity change, negative = inhibition was inactive: 4.87%. For Cc1ccc(OP(=O)(Nc2nccs2)Oc2ccc(C)cc2)cc1, the activity change, negative = inhibition was inactive: 0.411%. In the case of Clc1ccc(Cl)c(NC2=NCC(CBr)S2)c1 (stereo not given), the activity change, negative = inhibition is reported as inactive: -1.01%. In the case of CN1CCCC(OC(=O)C(c2ccccc2)c2ccccc2)C1 (stereo not given), the activity change, negative = inhibition is reported as inactive: -6.53%. For NC(=O)c1cc([N+](=O)[O-])cc([N+](=O)[O-])c1N, the activity change, negative = inhibition was inactive: -5.21%. In the case of Cc1ccc(N/C(=N/P(=O)(N2CCOCC2)N2CCOCC2)N2CCOCC2)cc1, the activity change, negative = inhibition is reported as inactive: -4.31%. With CC(=O)Nc1ccc([As](=O)(O)O)c(O)c1 the activity change, negative = inhibition was inactive: -6.9%. With CC(=O)Nc1ccc(Oc2c([N+](=O)[O-])cc([N+](=O)[O-])cc2[N+](=O)[O-])cc1 the activity change, negative = inhibition was inactive: -6.78%. For CC(=O)c1ccc(N2CC2c2ccncc2)cc1 (stereo not given), the activity change, negative = inhibition was inactive: -4.01%. With C[C@@H]1C=CCP(=O)(Oc2ccccc2)O1 (stereo not given in full) the activity change, negative = inhibition was inactive: -2.55%. With C[C@H]1OP(=O)(Oc2ccccc2)C[C@@H]2O[C@@H]21 (stereo not given in full) the activity change, negative = inhibition was inactive: -11.7%. With CC(C)(C)C(=O)NC(Sc1ccccc1)C(Cl)(Cl)Cl (stereo not given) the activity change, negative = inhibition was inactive: -2.41%. For O=P1(Nc2nc3ccc(Cl)cc3s2)COc2ccccc2O1 (stereo not given), the activity change, negative = inhibition was inactive: 7.65%. For CCOc1ccc(C2=NCC(CBr)S2)cc1 (stereo not given), the activity change, negative = inhibition was inactive: -2.72%. With Cc1ccccc1OP(=O)(Nc1ccccn1)Oc1ccccc1C the activity change, negative = inhibition was inactive: 2.25%. With CN(C)C(=O)Oc1noc2ccccc12 the activity change, negative = inhibition was inactive: -4.35%. For COC(=O)c1cc2c(s1)N=C(c1ccccc1)N(C)P2(=O)N1CCOCC1 (stereo not given), the activity change, negative = inhibition was inactive: -8.41%. For CC(=O)NC(SC(=S)N(CC(C)C)CC(C)C)C(Cl)(Cl)Cl (stereo not given), the activity change, negative = inhibition was inactive: -0.635%. In the case of Cc1ccc(OP(=O)(Nc2ccccn2)Oc2ccc(C)cc2)cc1, the activity change, negative = inhibition is reported as inactive: 0.658%. For O=C(OC1CN2CCC1CC2)c1ccccc1 (stereo not given), the activity change, negative = inhibition was inactive: -1.38%. With CCC(=O)N1C2C3N(C(=O)CC)C1C1N(C(=O)CC)C(C(N1C(=O)CC)N3C(=O)CC)N2C(=O)CC the activity change, negative = inhibition was inactive: 7.9%. In the case of O=C(NC1CCS(=O)(=O)C1)NP(=S)(Oc1ccccc1)Oc1ccccc1 (stereo not given), the activity change, negative = inhibition is reported as inactive: -4.22%. For CCNC(=S)/N=C(\N)N[N+](=O)[O-], the activity change, negative = inhibition was inactive: 9.7%. In the case of c1ccc(-c2nn[nH]n2)c(-c2nn[nH]n2)c1, the activity change, negative = inhibition is reported as inactive: -1.83%. For Cc1ccc(NP(=O)(Oc2cccc(C)c2)Oc2cccc(C)c2)nc1, the activity change, negative = inhibition was inactive: -7.73%. For CCOC(=O)NC(Sc1ccccc1)C(Cl)(Cl)Cl (stereo not given), the activity change, negative = inhibition was inactive: 8.22%. With Nc1ccc([As](=O)(O)c2ccc([N+](=O)[O-])cc2)cc1 the activity change, negative = inhibition was inactive: -0.436%. With C(Cc1nn[nH]n1)Cc1nn[nH]n1 the activity change, negative = inhibition was inactive: -4.99%. For O=C(OC1CN2CCC1CC2)c1cccc(Cl)c1 (stereo not given), the activity change, negative = inhibition was active: -53.7%. For CC(=O)NC(SC(=S)N(C)C)C(Cl)(Cl)Cl (stereo not given), the activity change, negative = inhibition was inactive: -1.57%. In the case of O=[N+]([O-])c1ncn(CCn2cnc([N+](=O)[O-])n2)n1, the activity change, negative = inhibition is reported as inactive: -2.87%. With O=[N+]([O-])c1ccc(O)c(/C=N/Nc2ccc([N+](=O)[O-])cc2[N+](=O)[O-])c1 the activity change, negative = inhibition was inactive: -8.57%. With O=[As](O)(c1ccccc1)c1ccc(O)cc1 the activity change, negative = inhibition was inactive: -5.53%. With O=P(Nc1nc2ccccc2s1)(c1ccccc1)c1ccccc1 the activity change, negative = inhibition was inactive: 12%. For C[C@H]1OP(=O)(Oc2ccccc2)[C@H](O)[C@H](O)[C@H]1N=[N+]=[N-] (stereo not given in full), the activity change, negative = inhibition was inactive: -1.79%. In the case of CN(C)C1(CNC(=O)c2ccc(Cl)c(S(N)(=O)=O)c2)CCCCC1, the activity change, negative = inhibition is reported as inactive: 0.663%. With O=P(Nc1ccccn1)(c1ccc(Br)cc1)c1ccc(Br)cc1 the activity change, negative = inhibition was inactive: -6.04%. For c1nnnn1CCn1cnnn1, the activity change, negative = inhibition was inactive: -1.63%. In the case of O=P(Nc1nccs1)(c1ccccc1)c1ccccc1, the activity change, negative = inhibition is reported as inactive: -7.68%. For CC(C)C(=O)NC(Sc1ccccc1)C(Cl)(Cl)Cl (stereo not given), the activity change, negative = inhibition was inactive: -35.2%.
